Laboratory results: PubChem BioAssay AID504891 (National Center for Advancing Translational Sciences (NCATS), 2011)
This is a selection; strong and weak results do not stand in their true shares. Records with an inconclusive call do not appear. Calls of active or inactive are those of the source. Calls come from the whole dose curve; as a rule, active = well fitted inhibition curve with a large enough effect in the polarisation, with a control signal flat (not every such curve was filed as active); inconclusive = small, poorly fitted or top-dose-only effect, or effect the other way, or a change in a side signal; inactive = no such curve, though single readings can be large or run the other way; the % refers to the polarisation.

Chains of the proteins cited; added tags and fusions are not shown.
UniProt Q13526, whole entry: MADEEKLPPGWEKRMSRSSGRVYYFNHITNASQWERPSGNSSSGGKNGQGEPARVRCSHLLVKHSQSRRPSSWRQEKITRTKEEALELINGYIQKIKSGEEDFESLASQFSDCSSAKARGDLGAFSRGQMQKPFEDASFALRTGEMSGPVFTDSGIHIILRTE

These compounds were tested against Peptidyl-prolyl cis-trans isomerase NIMA-interacting 1 (Homo sapiens) (UniProt Q13526) (assay: qHTS Assay to Find Inhibitors of Pin1). Settings: Pin1 FP peptide displacement, HiFluor488, 10 min; at 115 µM (top of the series).
% is set by controls: 0 for no effect and ±100 for the full control effect.

Compound	activity, negative = inhibition
CCC(=O)N(c1ccccc1)C1(COC)CCN(CCn2nnn(CC)c2=O)CC1	inactive: -10.9%
CCC(=O)N(c1ccccc1)C1(COC)CCN(CCc2cccs2)CC1	inactive: -23%
